{
  "source": "patent US20150051171A1",
  "about": "“TETRAZOLINONE COMPOUNDS AND ITS USE AS PESTICIDES” (SUMITOMO CHEMICAL COMPANY, LIMITED, priority 2012, published 2015)",
  "key": {"[1]": {"system": "rice blast fungi (Magnaporthe grisea)", "assay_type": "in vivo", "settings": "50 ppm foliar spray, rice (cv; Nipponbare), 6 days in contact with infected seedlings"}, "[2]": {"system": "wheat rust fungi (Puccinia recondita)", "assay": "Wheat rust control on wheat, foliar spray before inoculation (Test Examples 4-6)", "assay_type": "in vivo", "settings": "50 ppm foliar spray, wheat (cv; Shirogane), inoculated 5 days after spraying", "experimental": "After spraying dilutions, the plants were air-dried and were placed at 20° C. under lighting for 5 days. The spores of wheat rust fungi (Puccinia recondita) were sprinkling-inoculated. After inoculation, the plants were placed under a dark and humid condition at 23° C. for 1 day and were then cultivated at 20° C. under lighting for 8 days and a lesion area was observed.\n(§1) The spores of wheat rust fungi (Puccinia recondita) were sprinkling-inoculated. After inoculation, the plants were placed under a dark and humid condition at 23° C. for 1 day and were then cultivated at 20° C. under lighting for 8 days and a lesion area was observed.\nas §1"}},
  "data": [
    {"smiles": "C/C=C/c1cccc(-n2nnn(C)c2=O)c1COc1ccn(-c2ccc(Cl)cc2)n1", "note": "[Present compound 35, 1-(2-{[1-(4-chlorophenyl)-1H-pyrazole-3-yl]oxymethyl}-3-(1-propenyl)phenyl)-4-methyl-1,4-dihydrotetrazole-5-one]", "values": [
      {"measurement": "lesion area compared to the lesion area in untreated plants", "setting": "[1]", "value": "≤ 30", "unit": "%"},
      {"measurement": "lesion area compared to the lesion area in untreated plants", "setting": "[2]", "value": "≤ 300"}
    ]}
  ]
}
